The values below are quoted from earlier work in US20020082448A1, “Aminoguanidine carboxylates for the treatment of non-insulin-dependent diabetes mellitus” (The Upjohn Company, priority 1999, published 2002).

For the series, the system named is non-insulin dependent diabetic patients. Conditions: 1000-3000 mg/day; cited from earlier work.

For the compound `CN(C)C(=N)N=C(N)N` [Metformin], the effect on hyperglycemia result is “reduce hyperglycemia”.
